Sequences of proteins named here, by UniProt entry; tags and fusion partners are left off. A change or cut given only in a name is not applied to a line headed by its entry.
UniProt Q9GZT9: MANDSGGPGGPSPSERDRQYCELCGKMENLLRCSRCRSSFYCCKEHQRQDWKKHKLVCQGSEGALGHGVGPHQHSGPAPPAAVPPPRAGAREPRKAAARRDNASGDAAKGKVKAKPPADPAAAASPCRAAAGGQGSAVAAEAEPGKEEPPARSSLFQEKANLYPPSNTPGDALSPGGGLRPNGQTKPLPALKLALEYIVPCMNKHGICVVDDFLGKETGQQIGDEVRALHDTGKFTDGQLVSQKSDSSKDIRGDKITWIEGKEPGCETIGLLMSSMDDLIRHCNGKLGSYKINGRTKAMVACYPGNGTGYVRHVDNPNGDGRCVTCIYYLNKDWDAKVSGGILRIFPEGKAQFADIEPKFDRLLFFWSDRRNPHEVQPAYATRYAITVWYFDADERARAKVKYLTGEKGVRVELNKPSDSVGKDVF
UniProt Q96KS0, whole entry: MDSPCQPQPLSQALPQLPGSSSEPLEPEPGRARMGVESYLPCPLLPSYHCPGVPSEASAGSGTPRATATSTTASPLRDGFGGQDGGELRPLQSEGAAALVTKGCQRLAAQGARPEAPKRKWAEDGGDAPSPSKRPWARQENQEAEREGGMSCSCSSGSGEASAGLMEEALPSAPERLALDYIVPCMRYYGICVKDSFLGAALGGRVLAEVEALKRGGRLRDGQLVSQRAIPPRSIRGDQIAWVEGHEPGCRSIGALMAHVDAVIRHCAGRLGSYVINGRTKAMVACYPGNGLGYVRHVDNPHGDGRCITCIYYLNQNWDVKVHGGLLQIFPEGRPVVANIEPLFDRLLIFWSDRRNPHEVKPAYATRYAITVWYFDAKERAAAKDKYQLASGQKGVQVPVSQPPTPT

According to US9409892B2, “4-hydroxy-isoquinoline compounds as HIF hydroxylase inhibitors” (FIBROGEN, INC., priority 2012, dated 2016):

Columns and labels:
PHD2 (EGLN1) = PHD2 (EGLN1) (Homo sapiens (Human), UniProt Q9GZT9); test: HIF-PH assay (14CO2 capture), PHD2 enzyme inhibition; type: biochemical
Text: (§1) Ketoglutaric acid α-[1-^14C]-sodium salt, alpha-ketoglutaric acid sodium salt, and HPLC purified peptide may be obtained from commercial sources, e.g., Perkin-Elmer (Wellesley Mass.), Sigma-Aldrich, and SynPep Corp. (Dublin Calif.), respectively. Peptides for use in the assay may be fragments of HIFα as described above or as disclosed in International Publication WO 2005/118836, incorporated by reference herein. HIF-pH, e.g., PHD1 (EGLN2) or PHD2 (EGLN1), can be expressed in, e.g., insect Hi5 cells, and partially purified, e.g., through a SP ion exchange chromatography column. Enzyme activity is determined by capturing ^14CO2 using an assay described by Kivirikko and Myllyla (1982, Methods Enzymol. 82:245-304). Assay reactions contain 50 mM HEPES (pH 7.4), 100 μM α-ketoglutaric acid sodium salt, 0.30 mCi/mL ketoglutaric acid α-[1-^14C]-sodium salt, 40 μM FeSO4, 1 mM ascorbate, 1541.8 units/mL Catalase, with or without 50 μM peptide substrate and various concentrations of compound of the invention. Reactions are initiated by addition of HIF-PH enzyme.
(§2) The peptide-dependent percent turnover is calculated by subtracting percent turnover in the absence of peptide from percent turnover in the presence of substrate peptide. Percent inhibition and IC50 are calculated using peptide-dependent percent turnover at given inhibitor concentrations. […]

PHD1 (EGLN2) = PHD1 (EGLN2) (Homo sapiens (Human), UniProt Q96KS0); test: HIF-PH assay (14CO2 capture), PHD1 enzyme inhibition; type: biochemical
Text: as §1, §2

IC50 (PHD2 (EGLN1); Table 1, individual measurement) | Structure (SMILES) | IC50 (PHD2 (EGLN1)) | IC50 (PHD1 (EGLN2)) | PHD2/PHD1 (PHD1 (EGLN2))
48.1 µM | N#Cc1nc(C(=O)N[C@@H](CC(=O)O)Cc2ccccc2)c(O)c2ccc(Oc3ccccc3)cc12 [Compound 68, (R)-3-[(1-Cyano-4-hydroxy-7-phenoxy-isoquinoline-3-carbonyl)-amino]-4-phenyl-butyric acid] | – | – | –
– | N#Cc1nc(C(=O)NCC(C(=O)O)c2ccccc2)c(O)c2ccc(Oc3ccccc3)cc12 (stereo not shown) [Compound 168, 3-[(1-Cyano-4-hydroxy-7-phenoxy-isoquinoline-3-carbonyl)-amino]-2-phenyl-propionic acid] | 26.6 µM | 1.79 µM | 15

Like-named read-outs stand apart in the source and are kept apart here.
